This is a selection; strong and weak results do not stand in their true shares. The source made the active and inactive calls. Cut-off read from the data, not from the text of the source: active = activation above about 80%; inactive = the rest.
Biological target: Sphingosine 1-phosphate receptor 1 (Homo sapiens) (UniProt P21453)
Assay: S1P1 (human) receptor agonism (AID 1044)
Conditions: S1P1 agonist cell-based reporter assay; at 4.5 µM; stronger effect = higher value

Protein sequences, listed by entry. Tags and fused reporters are not part of them.
UniProt P21453, whole entry, looked up: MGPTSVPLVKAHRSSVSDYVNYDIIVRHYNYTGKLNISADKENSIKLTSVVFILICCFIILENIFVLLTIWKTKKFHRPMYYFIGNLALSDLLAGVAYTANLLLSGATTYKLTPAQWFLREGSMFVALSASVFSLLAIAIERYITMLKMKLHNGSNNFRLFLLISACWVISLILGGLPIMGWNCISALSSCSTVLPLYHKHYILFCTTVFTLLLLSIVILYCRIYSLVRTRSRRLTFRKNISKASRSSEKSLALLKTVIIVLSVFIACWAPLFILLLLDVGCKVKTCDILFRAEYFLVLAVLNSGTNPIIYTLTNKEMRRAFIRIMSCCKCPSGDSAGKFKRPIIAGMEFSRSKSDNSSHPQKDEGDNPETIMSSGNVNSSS

Row | SMILES | activation
1 | O=C(OC1CN2CCC1CC2)c1cccc([N+](=O)[O-])c1 (configuration not stated) | inactive: -12%
2 | CCOC(=O)/C(=N/Nc1ccc([N+](=O)[O-])cc1)N1CC1 | inactive: -1.01%

Reference: PubChem BioAssay AID1044 (The Scripps Research Institute Molecular Screening Center, 2008)
